According to patent US9624268B2, “Oral peptide inhibitors of interleukin-23 receptor and their use to treat inflammatory bowel diseases” (Protagonist Therapeutics, Inc., priority 2014, dated 2017):

These molecules were tested against T1, Rat IL-23R (Rattus norvegicus, UniProt F1LX96) (assay: Rat IL-23R Competitive Binding ELISA (Rat ELISA)). Settings: Table 5B thioethers.
T1 sequence (F1LX96 1-639): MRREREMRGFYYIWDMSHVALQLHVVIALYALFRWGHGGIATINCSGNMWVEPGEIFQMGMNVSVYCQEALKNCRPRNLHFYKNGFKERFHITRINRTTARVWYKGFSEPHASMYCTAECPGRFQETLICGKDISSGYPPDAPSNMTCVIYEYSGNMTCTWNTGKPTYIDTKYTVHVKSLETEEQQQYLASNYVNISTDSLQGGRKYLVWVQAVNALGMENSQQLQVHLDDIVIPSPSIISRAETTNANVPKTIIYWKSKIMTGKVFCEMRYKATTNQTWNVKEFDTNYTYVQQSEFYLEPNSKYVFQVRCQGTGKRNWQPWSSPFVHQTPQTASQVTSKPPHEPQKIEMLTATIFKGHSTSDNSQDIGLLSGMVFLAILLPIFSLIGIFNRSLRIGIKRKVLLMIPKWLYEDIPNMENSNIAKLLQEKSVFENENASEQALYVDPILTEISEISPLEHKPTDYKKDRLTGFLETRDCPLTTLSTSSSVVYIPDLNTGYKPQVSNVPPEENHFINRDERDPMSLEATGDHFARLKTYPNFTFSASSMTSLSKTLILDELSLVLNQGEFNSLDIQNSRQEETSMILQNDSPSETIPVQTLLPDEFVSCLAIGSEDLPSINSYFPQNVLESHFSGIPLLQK
For `COc1ccc(C[C@H](NC(=O)[C@@H]2CSCC[C@H](NC(C)=O)C(=O)N[C@@H](CCC(N)=O)C(=O)N[C@@H]([C@@H](C)O)C(=O)N[C@@H](Cc3c[nH]c4ccccc34)C(=O)N[C@@H](CCC(N)=O)C(=O)N2)C(=O)N[C@@H](Cc2ccc(O)c(C(C)(C)C)c2)C(=O)N[C@@](C)(CCCCN)C(=O)N[C@@H](CCC(=O)O)C(=O)N[C@@H](CC(N)=O)C(=O)NCC(N)=O)cc1` [compound 725], the IC50 was 100 to 1000 nM.
Molecule `COc1ccc(C[C@H](NC(=O)[C@@H]2CSCC[C@H](NC(C)=O)C(=O)N[C@@H](CCC(N)=O)C(=O)N[C@@H]([C@@H](C)O)C(=O)N[C@@H](Cc3c[nH]c4ccccc34)C(=O)N[C@@H](CCC(N)=O)C(=O)N2)C(=O)N[C@@H](Cc2ccc3ccccc3c2)C(=O)N[C@@](C)(CCCCN)C(=O)N[C@@H](CCCCNC(C)=O)C(=O)N[C@@H](CC(N)=O)C(=O)N[C@@H](CO)C(N)=O)cc1` [compound 808] has an IC50 of 10 to 25 nM.
With `COc1ccc(C[C@H](NC(=O)[C@@H]2CSCC[C@H](NC(C)=O)C(=O)N[C@@H](CCC(N)=O)C(=O)N[C@@H]([C@@H](C)O)C(=O)N[C@@H](Cc3c[nH]c4ccccc34)C(=O)N[C@@H](CCC(N)=O)C(=O)N2)C(=O)N[C@@H](Cc2ccc3ccccc3c2)C(=O)N[C@@](C)(CCCCN)C(=O)N[C@@H](CCCCNC(C)=O)C(=O)N[C@@H](CC(N)=O)C(=O)N[C@@H](C)C(N)=O)cc1` [compound 809] the IC50 was 10 to 25 nM.
Work on `COc1ccc(C[C@H](NC(=O)[C@@H]2CSCC[C@H](NC(C)=O)C(=O)N[C@@H](CC(N)=O)C(=O)N[C@@H]([C@@H](C)O)C(=O)N[C@@H](Cc3c[nH]c4ccccc34)C(=O)N[C@@H](CCC(N)=O)C(=O)N2)C(=O)N[C@@H](Cc2ccc3ccccc3c2)C(=O)N[C@@](C)(CCCCN)C(=O)N[C@@H](CCCCNC(C)=O)C(=O)N[C@@H](CC(N)=O)C(=O)NCC(N)=O)cc1` [compound 817] yielded an IC50 of 25 to 100 nM.
Work on `COc1ccc(C[C@H](NC(=O)[C@@H]2CSCC[C@H](NC(C)=O)C(=O)N[C@@H](CCC(N)=O)C(=O)N[C@@H]([C@@H](C)O)C(=O)N[C@@H](Cc3c[nH]c4ccccc34)C(=O)N[C@@H](CCC(N)=O)C(=O)N2)C(=O)N[C@@H](Cc2ccc3ccccc3c2)C(=O)N[C@@](C)(CCCCN)C(=O)N[C@@H](CCCCNC(C)=O)C(=O)N[C@@H](CC(N)=O)C(=O)N[C@@H](C)C(=O)N[C@@H](CCC(=O)O)C(N)=O)cc1` [compound 825] yielded an IC50 of 10 to 25 nM.
In the case of `CC(=O)N[C@H]1CCSC[C@@H](C(=O)N[C@@H](Cc2ccc(OCCN)cc2)C(=O)N[C@@H](Cc2ccc3ccccc3c2)C(=O)N[C@@](C)(CCCCN)C(=O)N[C@@H](CC(=O)O)C(=O)N[C@@H](CC(N)=O)C(=O)NCC(N)=O)NC(=O)[C@H](CCC(N)=O)NC(=O)[C@H](Cc2c[nH]c3ccccc23)NC(=O)[C@H]([C@@H](C)O)NC(=O)[C@H](CCC(N)=O)NC1=O` [compound 855], the IC50 is reported as 10 to 25 nM.
`CC(=O)N[C@H]1CCSC[C@@H](C(=O)N[C@@H](Cc2ccc(OCCN)cc2)C(=O)N[C@@H](Cc2ccc3ccccc3c2)C(=O)N[C@@](C)(CC(C)C)C(=O)N[C@@H](CCC(=O)O)C(=O)N[C@@H](CC(N)=O)C(=O)N[C@@H](CC(N)=O)C(N)=O)NC(=O)[C@H](CCC(N)=O)NC(=O)[C@H](Cc2c[nH]c3ccccc23)NC(=O)[C@H]([C@@H](C)O)NC(=O)[C@H](CCC(N)=O)NC1=O` [compound 951] showed an IC50 of less than 10 nM.
For `CC(=O)N[C@H](CCCNC(=N)N)C(=O)N[C@H]1CCSC[C@@H](C(=O)N[C@@H](Cc2ccc(OCCN)cc2)C(=O)N[C@@H](Cc2ccc3ccccc3c2)C(=O)N[C@@](C)(CCCCN)C(=O)N[C@@H](CCC(=O)O)C(=O)N[C@@H](CC(N)=O)C(=O)N[C@@H](CC(N)=O)C(N)=O)NC(=O)[C@H](CCC(N)=O)NC(=O)[C@H](Cc2c[nH]c3ccccc23)NC(=O)[C@H]([C@@H](C)O)NC(=O)[C@H](CCC(N)=O)NC1=O` [compound 968], the IC50 was less than 10 nM.
`CC(=O)N[C@@H](Cc1ccc2ccccc2c1)C(=O)N[C@H]1CCSC[C@@H](C(=O)N[C@@H](Cc2ccc(OCCN)cc2)C(=O)N[C@@H](Cc2ccc3ccccc3c2)C(=O)N[C@@](C)(CCCCN)C(=O)N[C@@H](CCC(=O)O)C(=O)N[C@@H](CC(N)=O)C(=O)N[C@@H](CC(N)=O)C(N)=O)NC(=O)[C@H](CCC(N)=O)NC(=O)[C@H](Cc2c[nH]c3ccccc23)NC(=O)[C@H]([C@@H](C)O)NC(=O)[C@H](CCC(N)=O)NC1=O` [compound 971] gave an IC50 of 10 to 25 nM.
With `CC(=O)N[C@H](CCC(N)=O)C(=O)N[C@H]1CCSC[C@@H](C(=O)N[C@@H](Cc2ccc(OCCN)cc2)C(=O)N[C@@H](Cc2ccc3ccccc3c2)C(=O)N[C@@](C)(CCCCN)C(=O)N[C@@H](CCC(=O)O)C(=O)N[C@@H](CC(N)=O)C(=O)N[C@@H](CC(N)=O)C(N)=O)NC(=O)[C@H](CCC(N)=O)NC(=O)[C@H](Cc2c[nH]c3ccccc23)NC(=O)[C@H]([C@@H](C)O)NC(=O)[C@H](CCC(N)=O)NC1=O` [compound 974] the IC50 was less than 10 nM.
